Laboratory results taken from patent US9901553B2, “Method of modulating the activity of a nucleic acid molecule” (DUKE UNIVERSITY, priority 2007, dated 2018).

Chains of the proteins cited; added tags and fusions are not shown. Residues count along the entry.
UniProt P00742, 41-179 limits assumed: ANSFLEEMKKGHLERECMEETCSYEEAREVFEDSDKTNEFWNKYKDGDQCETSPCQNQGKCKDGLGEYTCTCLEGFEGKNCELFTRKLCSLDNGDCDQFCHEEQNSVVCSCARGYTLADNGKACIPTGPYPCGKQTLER
UniProt P00742, 235-488 limits assumed: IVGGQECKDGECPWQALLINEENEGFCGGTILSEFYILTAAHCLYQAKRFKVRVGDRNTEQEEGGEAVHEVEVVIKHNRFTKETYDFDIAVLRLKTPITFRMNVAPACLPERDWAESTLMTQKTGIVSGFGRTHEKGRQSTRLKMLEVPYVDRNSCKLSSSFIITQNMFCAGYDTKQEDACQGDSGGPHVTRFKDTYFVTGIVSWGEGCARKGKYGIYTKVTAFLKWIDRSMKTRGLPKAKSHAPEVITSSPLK

Molecular target: human factor Xa (Homo sapiens, UniProt P00742)
Test: APTT clotting assay: anticoagulant activity of factor Xa aptamer

Substance: 11f7t: 37 nt long, 2′fluoropyrimidine modified RNA aptamer to human factor Xa (SEQ ID NO: 2) (GAGAGCCCCAGCGAGAUAAUACUUGGCCCCGCUCUUU; 2'-fluoro at CU, RNA at AG, backbone not given here)
- anticoagulant activity (in words) (APTT, FIG. 5C): potent anticoagulant agent
- clotting time in aPTT assay (aptamer 250 nM, baseline approximately 28 seconds): approximately 97 seconds
